Experimental data published in US10435480.

Legend:
[1] = target: Rabbit anti-mouse IgG-AP conjugate (Sigma Cat. No. A3688) (rabbit); test: control without mouse IgG: conjugate only (1/5000) on Protein A, hydrophilic plate
[2] = target: Rabbit anti-mouse IgG-AP conjugate (Sigma Cat. No. A3688) (rabbit); test: control without mouse IgG: conjugate only (1/5000) on Protein A, hydrophobic plate
[3] = target: Mouse IgG (Sigma Cat No. 15381) (mouse); test: immunoassay, Protein A adsorbed on hydrophilic plate, mouse IgG 2 ug/mL, anti-mouse IgG-AP and PNPP; well 1
[4] = target: Mouse IgG (Sigma Cat No. 15381) (mouse); test: immunoassay, Protein A adsorbed on hydrophilic plate, mouse IgG 2 ug/mL, anti-mouse IgG-AP and PNPP; well 2
[5] = target: Mouse IgG (Sigma Cat No. 15381) (mouse); test: immunoassay, Protein A adsorbed on hydrophobic plate, mouse IgG 2 ug/mL, anti-mouse IgG-AP and PNPP; well 1
[6] = target: Mouse IgG (Sigma Cat No. 15381) (mouse); test: immunoassay, Protein A adsorbed on hydrophobic plate, mouse IgG 2 ug/mL, anti-mouse IgG-AP and PNPP; well 2

Question: Which results are given for “native Staphylococcus aureus Protein A (Sigma Cat. No. P7387) (from UniProt P38507 37-477)”?
Answer: A405 [1]: 0.025 A405; A405 [2]: 0.003 A405; A405 [3]: 1.26 A405; A405 [4]: 1.43 A405; A405 [5]: 0.014 A405; A405 [6]: 0.01 A405
